The text below walks through data of ChEMBL document CHEMBL1687837, “Roles of residues Cys69, Asn104, Phe160, Gly232, Ser237, and Asp240 in extended-spectrum beta-lactamase Toho-1” (2011).

Substrate in data set [1]: CC1(C)S[C@@H]2[C@H](NC(=O)Cc3ccccc3)C(=O)N2[C@H]1C(=O)O
Kind of data set: (§1) Ratio of Kcat to Km for Escherichia coli wild type beta-lactamase Toho-1 assessed as compound hydrolysis by spectrophotometry.

Substrate in data set [2]: CC1(C)S[C@@H]2[C@H](NC(=O)[C@H](N)c3ccccc3)C(=O)N2[C@H]1C(=O)O
The description is as §1.

Substrate in data set [3]: CC1(C)S[C@@H]2[C@H](NC(=O)Cc3ccccc3)C(=O)N2[C@H]1C(=O)O
Kind of data set: Activity of Escherichia coli wild type beta-lactamase Toho-1 assessed as compound hydrolysis by spectrophotometry.

B1: Beta-lactamase Toho-1 (Escherichia coli), Q47066 (protein)
chain: MMTQSIRRSMLTVMATLPLLFSSATLHAQANSVQQQLEALEKSSGGRLGVALINTADNSQILYRADERFAMCSTSKVMAAAAVLKQSESDKHLLNQRVEIKKSDLVNYNPIAEKHVNGTMTLAELGAAALQYSDNTAMNKLIAHLGGPDKVTAFARSLGDETFRLDRTEPTLNTAIPGDPRDTTTPLAMAQTLKNLTLGKALAETQRAQLVTWLKGNTTGSASIRAGLPKSWVVGDKTGSGDYGTTNDIAVIWPENHAPLVLVTYFTQPEQKAERRRDILAAAAKIVTHGF
Consider B1, for which, in data set [1], the kcat/Km was determined as 3.6 ×10⁶ /s/M. In addition, in data set [2], the kcat/Km was determined as 1.8 ×10⁶ /s/M. Moreover, in data set [3], the Km (commonly the substrate concentration at which the rate is half of its maximum) came out at 18 µM; the kcat (in general, the number of substrate molecules converted per active site and unit of time at saturation) was 65 s⁻¹.
